Consider one molecule from ChEMBL document CHEMBL5137065, “Recent Advances with KDM4 Inhibitors and Potential Applications” (J Med Chem, 2022).

Usually IC50 stands for the concentration that gives 50% inhibition.

This assay concerns the target T1, Lysine-specific demethylase 4B (Homo sapiens, UniProt O94953).
T1 sequence (O94953 whole entry): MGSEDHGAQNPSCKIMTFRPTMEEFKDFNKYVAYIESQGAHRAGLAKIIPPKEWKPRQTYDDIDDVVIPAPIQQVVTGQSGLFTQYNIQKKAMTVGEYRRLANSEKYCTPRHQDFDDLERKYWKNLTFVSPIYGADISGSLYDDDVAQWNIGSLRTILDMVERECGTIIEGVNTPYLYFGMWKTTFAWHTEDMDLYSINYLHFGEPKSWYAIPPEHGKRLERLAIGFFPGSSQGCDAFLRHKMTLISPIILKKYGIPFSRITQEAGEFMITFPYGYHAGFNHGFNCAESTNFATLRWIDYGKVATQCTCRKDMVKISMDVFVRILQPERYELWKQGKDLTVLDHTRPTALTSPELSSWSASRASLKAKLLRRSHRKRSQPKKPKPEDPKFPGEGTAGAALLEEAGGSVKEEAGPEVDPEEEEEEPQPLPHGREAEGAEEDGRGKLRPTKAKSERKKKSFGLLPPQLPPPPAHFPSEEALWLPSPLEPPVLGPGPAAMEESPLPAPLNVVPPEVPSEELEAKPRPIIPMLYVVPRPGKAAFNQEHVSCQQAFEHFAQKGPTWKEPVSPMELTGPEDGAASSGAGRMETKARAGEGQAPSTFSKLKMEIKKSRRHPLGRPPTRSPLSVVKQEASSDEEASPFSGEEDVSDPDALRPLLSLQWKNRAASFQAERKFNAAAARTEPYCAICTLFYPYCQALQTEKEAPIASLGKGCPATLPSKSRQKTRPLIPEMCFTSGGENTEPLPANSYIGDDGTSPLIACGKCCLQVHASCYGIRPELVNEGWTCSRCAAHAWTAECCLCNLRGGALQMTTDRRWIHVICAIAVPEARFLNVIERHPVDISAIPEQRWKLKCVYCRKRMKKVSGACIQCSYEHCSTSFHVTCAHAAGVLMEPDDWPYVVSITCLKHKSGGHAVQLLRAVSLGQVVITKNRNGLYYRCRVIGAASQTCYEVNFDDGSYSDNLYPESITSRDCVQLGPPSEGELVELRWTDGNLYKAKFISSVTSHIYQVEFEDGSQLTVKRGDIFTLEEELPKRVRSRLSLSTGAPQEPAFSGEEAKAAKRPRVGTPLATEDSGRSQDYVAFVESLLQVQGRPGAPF
Nature of the assay: Inhibition of KDM4B (unknown origin) measured by AlphaScreen assay. For orientation: Bead proximity is the source of the signal in Alpha formats.

The molecule `CC(C)[C@@H]1NC(=O)[C@@H](Cc2ccc(O)cc2)NC(=O)CSC[C@@H](C(N)=O)NC(=O)[C@H]([C@@H](C)O)NC(=O)[C@H](Cc2ccc(O)cc2)NC(=O)[C@H](Cc2c[nH]c3ccccc23)NC(=O)[C@H](CCCNC(=N)N)NC(=O)[C@H](Cc2c[nH]c3ccccc23)NC(=O)CNC(=O)[C@H](CO)NC(=O)[C@H](CCCNC(=N)N)NC(=O)[C@H]([C@@H](C)O)NC(=O)[C@H](CC(N)=O)NC(=O)[C@H](Cc2ccc(O)cc2)NC1=O` gave an IC50 of 0.033 µM.
